Laboratory results from US20060211606A1, “Peptides” (priority 2005, published 2006).

System: CA1 hippocampal neurones
Assay: Gerbil model of brain ischemia, intact CA1 hippocampal neurones
Assay type: in vivo, Mongolian gerbils
Description: Other experiments were carried out using a Gerbil model of brain ischemia. To assess neuroprotection, confocal microscopy was carried out on the brain after administration of the stabilised peptide or the IGF-I receptor binding domain.
In the gerbil brain, bilateral ligation of the common carotid arteries invariably produces specific hippocampal lesions: in the CA1 region, pyramidal neurones start to die 3-4 days after ischemia.
Male Mongolian gerbils weighing 50-60 g were used. The ischemic insult was performed by 5 min. ligation of the common carotid arteries under halotane in N2O:O2 (70:30) anaesthesia in strictly controlled normothermic conditions as previously described (Domańiska-Janik et al., 2004). The cerebral blood flow was continuously monitored by laser Doppler flowmetry (Muro, Inc.). A group of animals received stabilised peptide or IGF-1 (1 μg/μl in PBS) by injection at a dose of 25 μg directly to the left carotid artery immediately upon the reperfusion. Sham operated animals were injected with the same dose of the peptide.
Usually, 10-15 minutes after the procedure, treated animals were standing up on their legs and behaving as untreated ones. The animals were allowed a recovery period of one week, then were perfused with ice-cold 4% paraformaldehyde in PBS under pentobarbital anaesthesia. The histological evaluation was performed on paraffin-embedded and fixed, 10 mm-thick sections stained by hematoxylline/eosine. The extent of cell damage in the CA1 hippocampal region was quantified, under a Zeiss Axioscop 2, as the mean number of the persisted, intact neurons in the coronal sections. At least three defined 300 μm fields of the CA1 region were captured using a MC 10095 camera (Carl Zeiss Jena GmbH) and counted in a computer-assisted image analysis system (KS 300, Carl Zeiss Jena GmbH).

stabilised peptide: SEQ ID NO: 15 with D-Arginine at positions 14 and 15, N-terminus attached to PEG (Jeffamine) via succinic acid bridge, amidated at C-terminus (YQPPSTNKNTKSQRRKGSTFEEHK; D-Arg 14,15; N-terminal PEG via succinate; C-amide)
neurones on contralateral side as % of non-operated control value (25 μg into left carotid artery, contralateral side): 54% | number of intact neurones in CA1 region, contralateral side (25 μg into left carotid artery, contralateral side, mean±SD): 65.8±30 neurones per 300 μm length | neurones on injected side as % of non-operated control value (25 μg into left carotid artery, injected side): 74.5% | number of intact neurones in CA1 region, injected side (single bolus 25 μg into left carotid artery immediately after reperfusion, one week, mean±SD): 83.2±25 neurones per 300 μm length
